Laboratory results published in patent US9067914B1, “Tropomyosin-related kinase (TRK) inhibitors” (Genzyme Corporation, priority 2013, dated 2015).

Protein sequences, listed by entry. Tags and fused reporters are not part of them. Residues count along the entry.
UniProt P04629, 33-796 limits assumed: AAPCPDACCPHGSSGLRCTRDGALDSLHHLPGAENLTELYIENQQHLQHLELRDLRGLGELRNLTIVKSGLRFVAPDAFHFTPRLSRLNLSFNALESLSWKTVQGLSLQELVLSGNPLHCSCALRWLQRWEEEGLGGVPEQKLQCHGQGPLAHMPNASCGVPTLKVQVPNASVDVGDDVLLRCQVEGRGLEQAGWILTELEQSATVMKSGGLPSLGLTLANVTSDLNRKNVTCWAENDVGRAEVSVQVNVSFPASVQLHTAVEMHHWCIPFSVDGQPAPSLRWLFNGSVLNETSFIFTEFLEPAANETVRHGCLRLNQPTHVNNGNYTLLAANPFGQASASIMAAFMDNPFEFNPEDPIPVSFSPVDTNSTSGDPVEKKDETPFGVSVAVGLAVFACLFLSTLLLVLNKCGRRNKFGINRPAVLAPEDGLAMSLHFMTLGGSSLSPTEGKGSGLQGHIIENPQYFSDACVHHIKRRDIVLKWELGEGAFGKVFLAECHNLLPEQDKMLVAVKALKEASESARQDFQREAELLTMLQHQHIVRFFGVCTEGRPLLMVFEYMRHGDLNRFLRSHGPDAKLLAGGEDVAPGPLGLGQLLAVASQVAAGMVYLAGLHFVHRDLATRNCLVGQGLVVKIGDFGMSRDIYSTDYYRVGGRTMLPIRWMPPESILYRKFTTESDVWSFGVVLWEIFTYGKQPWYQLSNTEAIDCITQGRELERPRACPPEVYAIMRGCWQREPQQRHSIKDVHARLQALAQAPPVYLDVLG
UniProt Q16620, 32-822 limits assumed: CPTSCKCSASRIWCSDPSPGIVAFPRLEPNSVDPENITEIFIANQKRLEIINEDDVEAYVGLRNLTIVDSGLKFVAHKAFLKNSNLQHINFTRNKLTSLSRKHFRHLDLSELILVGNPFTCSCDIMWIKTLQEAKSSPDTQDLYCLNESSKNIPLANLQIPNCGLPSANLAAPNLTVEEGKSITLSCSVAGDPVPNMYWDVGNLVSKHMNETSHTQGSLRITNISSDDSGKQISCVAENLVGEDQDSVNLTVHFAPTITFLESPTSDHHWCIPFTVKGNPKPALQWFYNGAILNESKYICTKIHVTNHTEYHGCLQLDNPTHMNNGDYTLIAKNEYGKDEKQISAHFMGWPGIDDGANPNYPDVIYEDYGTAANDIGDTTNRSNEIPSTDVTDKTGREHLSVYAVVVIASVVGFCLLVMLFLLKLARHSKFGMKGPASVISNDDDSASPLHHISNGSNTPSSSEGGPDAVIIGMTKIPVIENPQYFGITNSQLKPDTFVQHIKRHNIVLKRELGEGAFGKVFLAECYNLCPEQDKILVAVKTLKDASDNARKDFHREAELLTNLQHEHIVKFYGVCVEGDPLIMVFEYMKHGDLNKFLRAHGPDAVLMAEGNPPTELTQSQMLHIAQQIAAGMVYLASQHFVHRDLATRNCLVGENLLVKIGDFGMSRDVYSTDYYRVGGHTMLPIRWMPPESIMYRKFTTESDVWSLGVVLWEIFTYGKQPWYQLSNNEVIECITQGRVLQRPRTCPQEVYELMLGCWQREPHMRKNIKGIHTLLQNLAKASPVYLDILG

What was measured:
TrkA = TrkA (Homo sapiens (Human), UniProt P04629); test: TrkA activity, off-chip mobility shift assay (LabChip 3000); assay type: biochemical; settings: read-out: IC50 TrkA; 55 μM ATP (ATP Km); n/d = none detected
TrkB = TrkB (Homo sapiens (Human), UniProt Q16620); test: TrkB activity, off-chip mobility shift assay (LabChip 3000); assay type: biochemical; settings: read-out: IC50 TrkB; 70 μM ATP (ATP Km); n/d = none detected

`COc1ccc(COc2ccc(Cn3cnc4cc(-c5nnc(C6CCNCC6)o5)ccc43)cc2OC)cn1` gave an IC50 (TrkA) of 434 nM and an IC50 (TrkB) of 439 nM.
